How the values were obtained:
ear vein bleeding = conditions: pig, in vivo
[1] = in vivo
tail bleeding = conditions: rat, in vivo
saphenous vein bleeding = conditions: rat, in vivo

Substance | bleeding time (ear vein bleeding) [min] | plasma level [1] | Tail bleeding (tail bleeding) [min] | tail bleeding time (tail bleeding) | RT50 for bleeding (tail bleeding; iv) [U/kg] | Sephaneous vein bleeding (saphenous vein bleeding) [min]
DAPT [reference compound] | 6.4 ± 3.7 | – | – | – | – | –
unfractionated heparin [UFH, reference compound] | 45 | ~ 0.6 µM | 27 | maximal bleeding | 235 | 6.472

Source: PMC8617063 (Nature Communications, 2021)
